# Earlier results as cited in patent US20070198063A1, “Electrical devices and anti-scarring drug combinations” (priority 2005, published 2007).
# Details: solvent named in the value; cited from earlier work
substance,measurement,value
phenazopyridine-HCl,"solubility, in words",slightly soluble in water and alcohol
